A549 tox-1: A549 cytotoxicity, counter-screen for Nrf2 inhibitors; actives 0.16% (n = 390,000); A549 ARE-Fluc cells, CellTiter-Fluor viability, 18-24 h; AID 504648; Potency, µM (highest dose often 46 µM), inactives show at the top dose activity change, negative = cytotoxicity, actives largely listed as inhibitors; also: potency is read from the fitted curve at half-maximal effect; % is scaled to controls: 0 for no effect and ±100 for the full control effect
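A549 ARE_Fluc cells in 5% FBS OPTI-MEM were exposed to compounds in concentration-response for 18-24 h at 37 deg C. Viability was read by CellTiter-Fluor fluorescence (Ex 405/Em 525) after 30 min, before the luciferase read.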
GALK inh: blocks human galactokinase activity; Potency, µM (doses to about 57.5 µM), for inactives: at the highest dose activity change, negative = inhibition, most hits filed as inhibitors; Purified GALK, Kinase-Glo residual ATP luminescence; P51570; actives 0.007% (n = 270,000); also: potency is read from the fitted curve at half-maximal effect; % is scaled to controls: 0 for no effect and ±100 for the full control effect
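5 nM enzyme, 35 uM ATP, 100 uM galactose, 20 mM HEPES pH8.0, 5 mM MgCl2; 1 h RT; residual ATP by Kinase-Glo Plus luminescence, qHTS format.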
PI4K2A inh: PI4K2A (human) kinase inhibition. Q9BTU6. purified PI4K2A, ADP-Glo luminescence, 1 h; active compounds read low. activity change, negative = inhibition, % at 76.9 µM. actives 0.13% (n = 420,000); in the data active = activity change below about -50%; inconclusive = mostly about -30% to -49%;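 also: -100% = wells without enzyme as full effect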
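Compounds are screened against recombinant PI4K2A using PI as substrate and ATP, the latter dispensed at 300 microM. Reactions run one hour at ambient temperature before ADP-Glo detection; full inhibition defined by wells lacking enzyme.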
miR-21 reporter: raises the signal of a miR-21 reporter; HeLa miR-21 FLuc reporter, luciferase, 48 h; Potency, µM (top dose mostly 38.3 µM), for inactives: at the highest dose reporter change, positive = more light; AID 2288; 340,000 tested, under 10 active; active = well fitted rising curve with a large enough effect; inconclusive = small, poorly fitted or top-dose-only effect; inactive = no such curve, though single readings can be large or run the other way;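 note: % of control where 0% means no effect; miR-21 action dims this reporter so a rising signal means less miR-21 action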
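Luminescence from a firefly luciferase reporter carrying a miR-21 binding site downstream, stably expressed under a CMV promoter in HeLa cells that make miR-21 endogenously, reports miRNA modulation after 48 h compound exposure up to approximately 40uM final.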
Nrf2 inh: Nrf2 pathway inhibition; A549 ARE-Fluc reporter, luciferase luminescence, 18-24 h; actives 2.1% (n = 360,000); Potency, µM (top dose mostly 46 µM), for inactives: at the top dose activity change, negative = inhibition, actives largely listed as inhibitors; also: potency is read from the fitted curve at half-maximal effect; % is scaled to controls: 0 for no effect and ±100 for the full control effect; nearly all actives have a fitted effect of over 60% in size
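A549 ARE_Fluc cells (5000/well, 5% FBS OPTI-MEM) pre-incubated 2 h, then treated with compounds 18-24 h at 37C/5% CO2 in concentration-response. CellTiter-Fluor viability read first; BugLite luciferase luminescence after 15 min at room temperature gives Nrf2 activity.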
Nrf2 activator: activators of Nrf2 (ARE) signaling | AREc32 ARE-luciferase reporter (MCF7-derived line), luminescence, 24 h | Potency, µM (titrated, usually from 46.1 µM), inactives show top-dose activation, actives largely listed as activators | actives 0.31% (n = 410,000); also: potency is read from the fitted curve at half-maximal effect; % of control where 0% means no effect; nearly all actives have a fitted effect of over 65% in size
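Quantitative high-throughput format: AREc32 reporter cells, 1000 per well, received compound by pin transfer and were incubated 24 hr at 37 deg C, 5% CO2, before Steady-Glo luminescence detection.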
FLuc enzyme inh: counter-screen for Nrf2 inhibitors: firefly luciferase enzyme inhibition. shares compounds with Nrf2 inh. purified firefly luciferase, luminescence inhibition. Potency, µM (doses to about 57.5 µM), inactives show at the highest dose activity change, negative = inhibition, hits mostly inhibitors. actives 4% (n = 1,400). AID 720522; also: potency is read from the fitted curve at half-maximal effect; % is scaled to controls: 0 for no effect and ±100 for the full control effect; nearly all actives have a fitted effect of over 65% in size
A549 tox-2: counter-screen for Nrf2 inhibitors: cytotoxicity in A549 ARE cells. Potency, µM (doses to about 46.1 µM), without a hit: at the top dose activity change, negative = cytotoxicity, usual class: inhibitors. shares compounds with Nrf2 inh. A549 ARE-Fluc cells, cytotoxicity counterscreen. AID 720523. actives 2% (n = 1,400);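 also: potency is read from the fitted curve at half-maximal effect; cells exposed to compounds for 18 to 24 hours; % is scaled to controls: 0 for no effect and ±100 for the full control effect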
ARE-Fluc inh: Nrf2 inhibition confirmed, A549 ARE-luciferase; shares compounds with Nrf2 inh; A549 ARE-firefly luciferase reporter, luminescence; Potency, µM (titrated, usually from 46.1 µM), for inactives: at the top dose activity change, negative = inhibition, usual class: inhibitors; actives 74% (n = 1,400); also: potency is read from the fitted curve at half-maximal effect; % is scaled to controls: 0 for no effect and ±100 for the full control effect; nearly all actives have a fitted effect of over 65% in size
* marks the source's active call; other numbers are inactive results; ? = inconclusive; / = no result shown. The list is not random: actives were taken first. Their share in the collection is about 2.2%. Unless noted, calls follow the shape of the dose curve; as a rule, active = well fitted curve in the direction sought with a large enough effect; inconclusive = small, poorly fitted or top-dose-only effect, or another doubt; inactive = no such curve, though single readings can be large; an effect the other way counts as inactive or inconclusive.

Field names – A = A549 tox-1; B = GALK inh; C = PI4K2A inh; D = miR-21 reporter; E = Nrf2 inh; F = Nrf2 activator; G = FLuc enzyme inh; H = A549 tox-2; I = ARE-Fluc inh
Compound: CC(C)(C)OC(=O)NCCCC[C@@H](C(=O)NCCCCCCCCCCC(=O)N1CCN(C(=O)OC(C)(C)C)CC1)n1cc(CCCC(=O)O)nn1
  A: -3%	B: /	C: -1	D: /	E: 7%	F: 0%	G: /	H: /	I: /

Compound: CC[C@H](C)[C@@H](C(=O)NCCCCCCCCCCC(=O)N1CCN(C(=O)OC(C)(C)C)CC1)n1cc(CCCCCNC(=O)OC(C)(C)C)nn1
  A: -6%	B: /	C: 6	D: /	E: 5.8µM*	F: 5%	G: -3%	H: -10%	I: 7.3µM*

Compound: Clc1cccc(CNc2nc(-c3ccccn3)nnc2-c2ccccc2)c1
  A: /	B: /	C: -4	D: /	E: /	F: /	G: /	H: /	I: /

Compound: c1ccc(-c2nnc(-c3ccccn3)nc2NC2CCCCC2)cc1
  A: ?	B: 0%	C: -13	D: 14%	E: 1.8µM*	F: 5%	G: -14%	H: ?	I: 4.1µM*

Compound: Nc1nncn1C(=O)c1ccc(Cl)cc1Cl
  A: -1%	B: -2%	C: 10	D: -2%	E: 1.6µM*	F: -2%	G: -10%	H: -20%	I: /

Compound: Nc1nncn1C(=O)c1ccccc1Cl
  A: -7%	B: 1%	C: -2	D: -3%	E: -29%	F: 0%	G: /	H: /	I: /

Compound: Cc1ccc(S(=O)(=O)c2c(N)n(/N=C/c3ccco3)c3nc4ccccc4nc23)cc1
  A: -5%	B: 6%	C: 0	D: -1%	E: ?	F: 0%	G: /	H: /	I: /

Compound: Nc1c(S(=O)(=O)c2ccccc2)c2nc3ccccc3nc2n1/N=C/c1ccco1
  A: -19%	B: -1%	C: -27	D: -3%	E: 5.8µM*	F: 0%	G: ?	H: -25%	I: 2.1µM*

Compound: Clc1ccc(-c2nnc3n2N=C(c2ccc(-c4ccccc4)cc2)CS3)cc1
  A: /	B: /	C: 6	D: /	E: /	F: /	G: /	H: /	I: /

Compound: COC(=O)[C@]12C[C@H](CC(=O)NCC34CC5CC(CC(C5)C3)C4)C(=O)N(CCc3ccc(OC)c(OC)c3)C1=C[C@H](C(C)(C)C)O[C@@H]2C
  A: /	B: /	C: -3	D: /	E: /	F: /	G: /	H: /	I: /

Compound: COc1ccc2c(C=O)c[nH]c2c1
  A: 8%	B: 1%	C: -3	D: 0%	E: 6%	F: 4%	G: /	H: /	I: /

Compound: Cc1ccc2[nH]cc(/C=C/c3cc[n+](C)cc3)c2c1
  A: -42%	B: -3%	C: 5	D: ?	E: 1.8µM*	F: 11%	G: 0%	H: -30%	I: 1.3µM*

Compound: COc1ccc2c(/C=C/c3cc[n+](C)cc3)c[nH]c2c1
  A: ?	B: /	C: -4	D: ?	E: 1.3µM*	F: 1%	G: 4%	H: ?	I: 1.6µM*

Compound: Cc1ccc2[nH]ccc(=O)c2c1
  A: -6%	B: /	C: -3	D: 1%	E: 0%	F: 4%	G: /	H: /	I: /

Compound: CC[n+]1ccc(/C=C/c2c[nH]c3ccccc23)cc1
  A: ?	B: 4%	C: 3	D: 27%	E: 1.3µM*	F: 5%	G: -1%	H: ?	I: 4.6µM*

Compound: Cc1cc(/C=C\c2ccc3cc(N(C)C)ccc3[n+]2C)c(C)n1-c1ccccc1
  A: 5.8µM*	B: /	C: -23	D: /	E: 1.2µM*	F: -1%	G: ?	H: 7.3µM*	I: 1.3µM*

Compound: O=C(CSc1ccccc1)NC1CCCCN(Cc2cccc(Cl)c2)C1=O (stereo unspecified)
  A: /	B: /	C: 2	D: /	E: /	F: /	G: /	H: /	I: /

Compound: CCn1c(Cc2cccs2)nnc1SCC(=O)Nc1ccc(Cl)cc1C
  A: /	B: /	C: -2	D: /	E: /	F: /	G: /	H: /	I: /

Compound: Cn1c(=O)c2c(nc(NCc3ccco3)n2C/C=C/c2ccccc2)n(C)c1=O
  A: ?	B: 6%	C: -5	D: 18%	E: 4.1µM*	F: 5%	G: 0%	H: -19%	I: 7.3µM*

Compound: CC(=O)c1cn(CCOc2ccccc2C)c2ccccc12
  A: 1%	B: 5%	C: 1	D: 24%	E: 4.6µM*	F: 3%	G: -2%	H: 5%	I: 6.5µM*

Some of the entries above, set out differently:
SMILES | A549 tox-1 | GALK inh | PI4K2A inh | miR-21 reporter | Nrf2 inh | Nrf2 activator | FLuc enzyme inh | A549 tox-2 | ARE-Fluc inh
Nc1c(S(=O)(=O)c2ccccc2)c2nc3ccccc3nc2n1/N=C/c1ccco1 | -19% | -1% | -27 | -3% | 5.8µM* | 0% | ? | -25% | 2.1µM*
Clc1ccc(-c2nnc3n2N=C(c2ccc(-c4ccccc4)cc2)CS3)cc1 | / | / | 6 | / | / | / | / | / | /
COC(=O)[C@]12C[C@H](CC(=O)NCC34CC5CC(CC(C5)C3)C4)C(=O)N(CCc3ccc(OC)c(OC)c3)C1=C[C@H](C(C)(C)C)O[C@@H]2C | / | / | -3 | / | / | / | / | / | /

From PubChem BioAssay
